{"source": "patent US20070286875A1", "about": "(Morton Grove Pharmaceuticals, Inc., priority 2006, published 2007)", "origin": "cited, not measured here"}
{"compound": "Clc1ccc2c(c1)CCc1cccnc1C2=C1CCNCC1", "values": [{"measurement": "effect of food on Tmax", "setting": "food prior to loratadine rapidly-disintegrating tablets", "result": "may be delayed"}, {"measurement": "bioavailability administered without water", "setting": "without water", "result": "not different"}]}
